Measured values as given in ChEMBL document CHEMBL5727868, “Amido spirocyclic amide and sulfonamide derivatives” (2020).

Protein sequences, listed by entry. Tags and fused reporters are not part of them. Lines headed by an entry give the natural chain unless they say otherwise; changes in a name come on top.
UniProt P43490: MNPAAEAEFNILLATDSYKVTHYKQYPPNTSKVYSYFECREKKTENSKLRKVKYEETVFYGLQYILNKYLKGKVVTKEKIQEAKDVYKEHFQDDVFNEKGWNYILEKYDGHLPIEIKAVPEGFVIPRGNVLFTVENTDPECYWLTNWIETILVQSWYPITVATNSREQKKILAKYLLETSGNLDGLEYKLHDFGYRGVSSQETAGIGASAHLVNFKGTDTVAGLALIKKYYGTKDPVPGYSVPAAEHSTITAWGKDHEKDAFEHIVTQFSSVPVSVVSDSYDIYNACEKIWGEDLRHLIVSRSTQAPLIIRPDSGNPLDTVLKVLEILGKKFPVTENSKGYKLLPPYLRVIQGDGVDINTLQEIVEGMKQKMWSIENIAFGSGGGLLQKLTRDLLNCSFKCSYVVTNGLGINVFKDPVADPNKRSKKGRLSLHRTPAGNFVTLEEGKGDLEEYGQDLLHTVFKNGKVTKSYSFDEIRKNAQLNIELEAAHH

Each molecule was assayed against T1, Nicotinamide phosphoribosyltransferase (Homo sapiens, UniProt P43490) (assay: not given).
Work on `C=Cc1cc(C(=O)NCC2CC23CCN(C(=O)C2CCCN2C(N)=O)CC3)oc1C=N` (stereo not drawn) yielded an IC50 of 398 nM. `O=C(NCC1CC12CCN(C(=O)NCc1ccc(Cl)c(O)c1)CC2)c1cc2ccncc2o1` (stereo not drawn) was tested, and the IC50 was 113 nM. In the case of `O=C(NCC1CC12CCN(C(=O)c1ccccc1)CC2)c1cc2cnccc2[nH]1` (stereo not drawn), the IC50 is reported as 255 nM. With `CC1(C)CC1C(=O)N1CCC2(CC1)CC2CNC(=O)C1Cc2ccncc2O1` (stereo not drawn) the IC50 was 14.9 nM. With `N#CC1CC=C(C(=O)N2CCC3(CC2)CC3CNC(=O)c2cc3ccncc3o2)C=N1` (stereo not drawn) the IC50 was 269 nM. Molecule `C=N/C=C\c1coc(C(=O)NCC2CC23CCN(C(=O)OCCO)CC3)c1` (stereo not drawn) has an IC50 of 75.1 nM. In the case of `C=C(CCC(=C)/C(C)=C\C=N)NCC1CC12CCN(C(=O)C/C=C\C(=C/C)C(=C)C1CCC(C)CC1)CC2` (stereo not drawn), the IC50 is reported as 22.7 nM. With `COCC(=O)N1CCC2(CC1)CC2CNC(=O)c1cc2cnccc2[nH]1` (stereo not drawn) the IC50 was 724 nM. For `O=C(NCC1CC12CCN(C(=O)CCC1CCCCC1)CC2)C1Cc2cnccc2O1` (stereo not drawn), the IC50 was 11.1 nM. Molecule `O=C(NCC1CC12CCN(C(=O)Cc1ccccc1)CC2)c1cc2cnccc2[nH]1` (stereo not drawn) has an IC50 of 64.8 nM. For `O=C(NCCCC1CCNCC1)c1cc2cnccc2[nH]1`, the IC50 was 140 nM. With `C=C(CC)C1CCC2(CC1)CC2CNC(=C)N1CC/C(=C\C=C/C)C1` (stereo not drawn) the IC50 was 10.3 nM. Work on `O=C(NCC1CC12CCN(Cc1ccccc1)CC2)c1cc2cnccc2[nH]1` (stereo not drawn) yielded an IC50 of 50.5 nM. In the case of `CCN(C)CCCCC(=O)NCCC1(CC)CC1CNC(=O)c1cc2ccncc2o1` (stereo not drawn), the IC50 is reported as 768 nM. For `CC(=O)NCC(C)(C)OC(=O)N1CCC(CCCNC(=O)N2Cc3ccncc3C2)CC1`, the IC50 was 20.2 nM. Molecule `CC(C)(C)CS(=O)(=O)N1CCC2(CC1)CC2CNC(=O)C1Cc2ccncc2N1` (stereo not drawn) has an IC50 of 23.3 nM. Molecule `O=C(NCC1CC12CCN(C(=O)c1cnccn1)CC2)c1cc2ccncc2o1` (stereo not drawn) has an IC50 of 579 nM. For `CS(=O)(=O)N1CCC2(CC1)CC2CNC(=O)c1cc2cnccc2[nH]1` (stereo not drawn), the IC50 was 2000 nM. `O=C(NCC1CC12CCN(C(=O)CC1CCCCC1)CC2)C1Cc2cnccc2O1` (stereo not drawn) was tested, and the IC50 was 14.4 nM. `CN1CCC(CC(=O)N2CCC3(CC2)CC3CNC(=O)c2cc3cnccc3[nH]2)CC1` (stereo not drawn) was tested, and the IC50 was 130 nM. Work on `C=Cc1cc(C(=O)NCC2CC23CCN(C(=O)C2CCCN2C(C)=O)CC3)oc1C=N` (stereo not drawn) yielded an IC50 of 812 nM. For `CC(=O)Nc1cccc(CN2CCC3(CC2)CC3CNC(=O)c2cc3ccncc3o2)c1` (stereo not drawn), the IC50 was 68.3 nM. `C=Cc1cc(C(=O)NCC2CC23CCN(C(=O)c2c(CC)noc2C)CC3)oc1C=N` (stereo not drawn) gave an IC50 of 104 nM. Work on `CN(CCC1(C)CC1CNC(=O)C1=CC2C=CN=CC2O1)C(N)=O` (stereo not drawn) yielded an IC50 of 55.8 nM. Work on `C=CCC(/C=C/CC(=O)N1CCC2(CC1)CC2CNC(=O)C1Cc2cnccc2O1)C(F)(F)F` (stereo not drawn) yielded an IC50 of 12 nM. In the case of `C=C/C=C(C#N)\C=C\CC(=O)N(CC)CCCCCCNC(=O)c1cc2cnccc2[nH]1`, the IC50 is reported as 263 nM. Work on `C/C=N\C=C1/CCN(C(=O)NCCCCCCN(CC)C(=O)c2ccc(N3CCN(C)CC3)cc2)C1` yielded an IC50 of 9.69 nM. In the case of `C=Cc1cc(C(=O)NCC2CC23CCN(C(=O)c2cocn2)CC3)oc1C=N` (stereo not drawn), the IC50 is reported as 826 nM. `O=C(NCC1CC12CCN(C(=O)Cc1cc(F)cc(F)c1)CC2)C1Cc2cnccc2O1` (stereo not drawn) was tested, and the IC50 was 17.3 nM. Molecule `CCC1(CCNC(=O)CC2(C)CCN(C)CC2)CC1CNC(=O)N1CC2=CC=NCC2C1` (stereo not drawn) has an IC50 of 6 nM. In the case of `O=C(CC1=CCCC=C1)N1CCC2(CC1)CC2CNC(=O)N1Cc2ccncc2C1` (stereo not drawn), the IC50 is reported as 23.6 nM. `O=C(NCC1CC12CCN(C(=O)C1CCCCC1)CC2)c1cc2cnccc2[nH]1` (stereo not drawn) gave an IC50 of 108 nM. `CCN(C)CCCCC(=O)N1CCC2(CC1)CC2CNC(=O)c1cc2ccncc2o1` (stereo not drawn) was tested, and the IC50 was 121 nM. Work on `O=C(NCC1CC12CCN(C(=O)CN1CCOCC1)CC2)C1Cc2cnccc2O1` (stereo not drawn) yielded an IC50 of 131 nM. With `CS(=O)(=O)N1CCC(C(=O)N2CCC(CCCNC(=O)c3cc4ccncc4o3)CC2)CC1` the IC50 was 231 nM. With `C=CC1=C(C=N)CN(C(=O)NCC2CC23CCN(C(=O)OCC(C)(C)O)CC3)C1` (stereo not drawn) the IC50 was 67.5 nM. Work on `C=C/C(C#N)=C\C=C\CC(=O)N(CC)CCC1CC1CNC(=O)c1cc2cnccc2[nH]1` (stereo not drawn) yielded an IC50 of 179 nM. `C=C(Oc1cccnc1)C(=O)NCC1CC12CCN(C(=O)CC1CCN(CC)CC1)CC2` (stereo not drawn) showed an IC50 of 288 nM. `C=C/C=C\c1c[nH]nc1C(=O)N1CCC2(CC1)CC2CNC(=O)c1cc2c(o1)=CNCC=2` (stereo not drawn) gave an IC50 of 368 nM. Molecule `CCOCCNCCC(=O)N1CCC2(CC1)CC2CNC(=O)N1Cc2ccncc2C1` (stereo not drawn) has an IC50 of 54.8 nM. For `C=Cc1cc(C(=O)NCC2CC23CCN(C(=O)CCN2CCOCC2)CC3)oc1C=N` (stereo not drawn), the IC50 was 526 nM. Molecule `CC(C)(C)OC(=O)N1CCC2(CC1)CC2CNC(=O)c1cc2[nH]ncc2o1` (stereo not drawn) has an IC50 of 384 nM. `C=C/C=C/N=C\C=C\N=C\C(=O)N1CCC2(CC1)CC2CNC(=O)c1cc2ccncc2o1` (stereo not drawn) showed an IC50 of 69.5 nM. `C=C(/C=C\C(=C)C(=C)C(CC)CCCCCCNC(=C)c1cc2cnccc2[nH]1)CCCCC(C)CC` (stereo not drawn) was tested, and the IC50 was 54.1 nM. Molecule `O=C(NCC1CC12CCN(S(=O)(=O)c1ccccc1)CC2)c1cc2cnccc2[nH]1` (stereo not drawn) has an IC50 of 423 nM. Work on `CC(C)(CO)OC(=O)N1CCC(CCCNC(=O)N2Cc3ccncc3C2)CC1` yielded an IC50 of 28.8 nM. For `C=Cc1cc(C(=O)NCC2CC23CCN(C(=O)c2cnccc2C)CC3)oc1C=N` (stereo not drawn), the IC50 was 207 nM. Work on `CC1CC12CCN(C(=O)CC1CC1)CC2` (stereo not drawn) yielded an IC50 of 153 nM. For `Cn1nc(C(C)(C)C)cc1C(=O)N1CCC2(CC1)CC2CNC(=O)c1cc2c(o1)C=NCC2` (stereo not drawn), the IC50 was 87.1 nM. `Cc1nc2ccccn2c1C(=O)N1CCC2(CC1)CC2CNC(=O)C1Cc2ccncc2O1` (stereo not drawn) was tested, and the IC50 was 82.2 nM. `CCN(CCCCCCNC(=O)N1CC2=C(CCN=C2)C1)C(=O)Cc1ccc(C#N)cc1` was tested, and the IC50 was 49.1 nM. Work on `N#CC1C=CC(NC(=O)N2CCC3(CC2)CC3CNC(=O)c2cc3ccncc3o2)=CC1` (stereo not drawn) yielded an IC50 of 75.2 nM. In the case of `O=C(NCC1CC12CCN(C(=O)Cc1cccc([SH](=O)=O)c1)CC2)c1cc2ccncc2o1` (stereo not drawn), the IC50 is reported as 64.2 nM. With `CC(C)(C)CCN1CCC2(CC1)CC2CNC(=O)N1CC2=CN=C(N)CC2C1` (stereo not drawn) the IC50 was 290 nM. `Cc1n[nH]c(C)c1C(=O)N1CCC2(CC1)CC2CNC(=O)c1cc2ccncc2o1` (stereo not drawn) showed an IC50 of 27 nM. `O=C(NCC1=CCCC=C1)N1CCC2(CC1)CC2CNC(=O)N1Cc2ccncc2C1` (stereo not drawn) was tested, and the IC50 was 58.8 nM. Molecule `O=C(NCCC1CCN(C(=O)c2ccnc3ncccc23)CC1)c1cc2ccncc2o1` has an IC50 of 321 nM. With `Cc1cc(C)c(CN2CCC3(CC2)CC3CNC(=O)c2cc3ccncc3o2)cn1` (stereo not drawn) the IC50 was 56 nM. `CN1CCN(Cc2cccc(C(=O)N3CCC4(CC3)CC4CNCc3cc4cnccc4[nH]3)c2)CC1` (stereo not drawn) showed an IC50 of 97.3 nM. `O=CN1CCC2(CC1)CC2CNC(=O)c1cc2ccncc2o1` (stereo not drawn) gave an IC50 of 502 nM. Work on `COc1ccccc1CNC(=O)N1CCC2(CC1)CC2CNC(=O)c1cc2c(o1)C=NCC2` (stereo not drawn) yielded an IC50 of 118 nM. In the case of `CCC(CCNC(C)C)CC(=O)N1CCC2(CC1)CC2CNC(=O)N1Cc2ccncc2C1` (stereo not drawn), the IC50 is reported as 30.1 nM.

What follows are molecules tested against T1, Nicotinamide phosphoribosyltransferase (assay: biochemical).
`CCC(=O)N1CCC2(CC1)CC2CNC(=O)c1cc2cnccc2[nH]1` (stereo not drawn) was tested, and the IC50 was 398 nM.
